Laboratory results as given in patent US20090246276A1, “Pharmaceutical Compositions” (priority 2008, published 2009).

SMILES	% Released (Example 1 tablet, 0.1N HCl, 15 hr)	% Released (Example 1 tablet, 0.1N HCl, 16 hr)	% Released (Example 2 tablet, 0.1N HCl, 16 hr)	% Released (Example 2 tablet, pH 4.5 acetate buffer, 12 hr)	% Released (Example 3 tablet, 0.1N HCl, 8 hr)	% Released (Example 3 tablet, pH 4.5 acetate buffer, 16 hr)	% Released (Example 10 tablet, 0.1N HCl, 12 hr)	% Released (Example 11 tablet, 0.1N HCl, 16 hr)	% Released (Example 17 tablet, 0.1N HCl, 12 hr)	% Released (Example 18 tablet, 0.1N HCl, 8 hr)
CC(NC(C)(C)C)C(=O)c1cccc(Cl)c1 (stereo not shown) [Bupropion HBr, bupropion hydrobromide]	102%	102%	102%	102%	102%	102%	102%	102%	102%	–
CC(NC(C)(C)C)C(=O)c1cccc(Cl)c1 (stereo not shown) [Bupropion HCl, bupropion hydrochloride]	–	–	–	–	–	–	–	–	–	101.69%

Where a name gives a salt, the structure may show the parent alone. Read-outs that look alike come from different tables or passages of the source.
